The values that follow come from patent US11407721B2, “CIS-morpholinone and other compounds as MDM2 inhibitors for the treatment of cancer” (AMGEN INC., priority 2013, dated 2022).

By UniProt entry, the sequences of proteins in these tests, tags left out. Residues count along the entry.
UniProt Q00987, 1-188 limits assumed: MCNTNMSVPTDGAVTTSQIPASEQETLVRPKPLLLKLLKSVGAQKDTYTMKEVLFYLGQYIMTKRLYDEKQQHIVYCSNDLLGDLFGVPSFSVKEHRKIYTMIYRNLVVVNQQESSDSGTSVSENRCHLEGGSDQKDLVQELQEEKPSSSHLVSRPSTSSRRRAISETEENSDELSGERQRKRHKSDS

The test addresses interaction between HDM2 and p53 (GST-hMDM2 (1-188) / biotinylated-p53 (1-83)) (Homo sapiens (Human), UniProt Q00987). Description: HTRF2 Assay (improved HTRF assay). The format is binding. Particulars: read-out: HTRF2 IC50; 0.2 nM GST-hMDM2 (1-188), 0.5 nM biotinylated-p53 (1-83), 100 mM KF.
Regarding `CCC[C@@H](C(=O)N1CCN(CC2CC2)CC1)N1C(=O)[C@@H](Cc2ccc(C#N)cc2)O[C@H](c2ccc(Cl)cc2)[C@@H]1c1ccc(Cl)cc1` (relative stereo), the IC50 was 1.38 µM.
The result for `CCC[C@@H](C(=O)N1CCN(CC2CC2)CC1)N1C(=O)[C@@H](Cc2ccc(I)cc2)O[C@H](c2ccc(Cl)cc2)[C@@H]1c1ccc(Cl)cc1` (relative stereo) reads 1.53 µM.
The result for `CCC[C@@H]1CN=C2CO[C@@H](c3ccc(Cl)cc3)[C@@H](c3ccc(Cl)cc3)N21` (relative stereo) reads 11 µM; that for `CCC[C@@H]1CN=C2CO[C@H](c3ccc(Cl)cc3)[C@H](c3ccc(Cl)cc3)N21` (relative stereo), 39.9 µM.
For the compound `CCC[C@H](C(=O)N(C)CC(=O)O)N1C(=O)[C@H](Cc2ccc(F)cc2)O[C@@H](c2ccc(Cl)cc2)[C@H]1c1ccc(Cl)cc1` (relative stereo), the IC50 is 6.15 µM.
The result for `CCC[C@H](C(=O)N(C)CCC(=O)O)N1C(=O)[C@H](Cc2ccc(F)cc2)O[C@@H](c2ccc(Cl)cc2)[C@H]1c1ccc(Cl)cc1` (relative stereo) reads 0.498 µM; that for `CCC[C@H](C(=O)N1CC(C(=O)O)C1)N1C(=O)[C@H](Cc2ccc(C#N)cc2)O[C@@H](c2ccc(Cl)cc2)[C@H]1c1ccc(Cl)cc1` (relative stereo), 0.479 µM.
To `CCC[C@H](C(=O)NC)N1C(=O)CO[C@@H](c2ccc(Cl)cc2)[C@H]1c1ccc(Cl)cc1` (relative stereo) belongs 2.87 µM.
To `CCC[C@H](C(=O)NCCO)N1C(=O)CO[C@@H](c2ccc(Cl)cc2)[C@H]1c1ccc(Cl)cc1` (relative stereo) belongs 3.44 µM.
As for `CCC[C@H](C(=O)NO)N1C(=O)[C@H](Cc2ccc(I)cc2)O[C@@H](c2ccc(Cl)cc2)[C@H]1c1ccc(Cl)cc1` (relative stereo), the IC50 came out at 1.66 µM.
The result for `CCC[C@H](C(=O)NS(C)(=O)=O)N1C(=O)[C@H](Cc2ccc(C#N)cc2)O[C@@H](c2ccc(Cl)cc2)[C@H]1c1ccc(Cl)cc1` (relative stereo) reads 0.305 µM.
As for `CCC[C@H](C(=O)O)N1C(=O)CO[C@@](C)(c2cccc(Cl)c2)[C@H]1c1ccc(Cl)cc1` (relative stereo), the IC50 is 20 µM.
The result for `CCC[C@H](C(=O)O)N1C(=O)[C@@H](Cc2ccc(S(C)(=O)=O)cc2F)O[C@H](c2ccc(Cl)cc2)[C@@H]1c1ccc(Cl)cc1` (relative stereo) reads 29.6 µM; that for `CCC[C@H](C(=O)O)N1C(=O)[C@H](Cc2ccc(F)cc2)O[C@@H](c2ccc(Cl)c(Cl)c2)[C@H]1c1ccc(Cl)cc1` (relative stereo), 3.69 µM; that for `CCC[C@H](C(=O)O)N1C(=O)[C@H](Cc2ccc(S(C)(=O)=O)cc2)O[C@@H](c2ccc(Cl)cc2)[C@H]1c1ccc(Cl)cc1` (relative stereo), 0.374 µM.
As for `CCC[C@H](C(N)=O)N1C(=O)CO[C@@H](c2ccc(Cl)c(Cl)c2)[C@H]1c1ccc(Cl)cc1` (relative stereo), the IC50 is 9.16 µM.
As for `CCC[C@H](C(N)=O)N1C(=O)[C@H](Cc2ccc(F)cc2)O[C@@H](c2ccc(Cl)c(Cl)c2)[C@H]1c1ccc(Cl)cc1` (relative stereo), the IC50 was determined as 2.38 µM.
As to `CCC[C@H](CN1CCC(C(=O)O)CC1)N1C(=O)[C@H](Cc2ccc(F)cc2)O[C@@H](c2ccc(Cl)cc2)[C@H]1c1ccc(Cl)cc1` (relative stereo), the half-inhibitory concentration (IC50) worked out at 2.12 µM.
With `C[C@]1(c2cccc(Cl)c2)O[C@H](CC(=O)O)C(=O)N(CC2CC2)[C@H]1c1ccc(Cl)cc1` (relative stereo), the IC50 was 35.9 µM.
To `NC(=O)[C@@H](c1ccc(Cl)cc1)N1C(=O)CO[C@@H](c2ccc(Cl)cc2)[C@H]1c1ccc(Cl)cc1` (relative stereo) belongs 7.44 µM; to `O=C(O)[C@@H](c1ccc(Cl)cc1)N1C(=O)[C@H](Cc2ccc(F)cc2)O[C@@H](c2ccc(Cl)cc2)[C@H]1c1ccc(Cl)cc1` (relative stereo), 1.41 µM; to `O=C1[C@@H](Cc2ccc(F)cc2)O[C@@H](c2ccc(Cl)cc2)[C@@H](c2ccc(Cl)cc2)N1c1cccnc1` (relative stereo), 79 µM.

As usually defined, the IC50 is the concentration needed to halve the response being measured.
